Results: PubChem BioAssay (NCI)
“And” between values parts separate entries of the source, which are not always exact repeats. Identical values can stand only once.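 Values below derive from 48-hour exposures of cells grown in 96-well plates, with endpoints linearly interpolated between the two concentrations bracketing the appropriate inhibition level. GI50: concentration for 50% inhibition of growth. The concentration for full growth arrest is given as TGI.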

Key:
Assay in all cases: NCI tumour cell line growth inhibition, 48 h
NCI-H460 lung = test system: NCI-H460 lung
NCI-H522 lung = test system: NCI-H522 lung
NCI/ADR-RES ovarian = test system: NCI/ADR-RES ovarian
OVCAR-3 ovarian = test system: OVCAR-3 ovarian
OVCAR-4 ovarian = test system: OVCAR-4 ovarian
OVCAR-5 ovarian = test system: OVCAR-5 ovarian
OVCAR-8 ovarian = test system: OVCAR-8 ovarian
P388 leukemia = test system: P388 leukemia
P388/ADR leukemia = test system: P388/ADR leukemia
RPMI-8226 leukemia = test system: RPMI-8226 leukemia
RXF 393 renal = test system: RXF 393 renal
SF-268 CNS = test system: SF-268 CNS
SF-295 CNS = test system: SF-295 CNS
SF-539 CNS = test system: SF-539 CNS
SK-MEL-2 melanoma = test system: SK-MEL-2 melanoma
SK-MEL-28 melanoma = test system: SK-MEL-28 melanoma
SK-MEL-5 melanoma = test system: SK-MEL-5 melanoma
SK-OV-3 ovarian = test system: SK-OV-3 ovarian
SN12C renal = test system: SN12C renal
SN12K1 renal = test system: SN12K1 renal
SNB-19 CNS = test system: SNB-19 CNS
SNB-75 CNS = test system: SNB-75 CNS
SNB-78 CNS = test system: SNB-78 CNS
SW-620 colon = test system: SW-620 colon
U251 CNS = test system: U251 CNS
UACC-257 melanoma = test system: UACC-257 melanoma
UACC-62 melanoma = test system: UACC-62 melanoma
UO-31 renal = test system: UO-31 renal
XF 498 CNS = test system: XF 498 CNS

COc1ccc(O)c2c(=O)c3c(OC)cc4c(c3oc12)[C@@H]1C=CO[C@@H]1O4
GI50 (NCI-H460 lung): 0.367 µM and 0.204 µM
TGI (NCI-H460 lung): 71.4 µM and 41.4 µM
GI50 (NCI-H522 lung): 7.49 µM and 11.6 µM
TGI (NCI-H522 lung): 65.4 µM and 99.2 µM
GI50 (NCI/ADR-RES ovarian): 5.89 µM and 4.7 µM
TGI (NCI/ADR-RES ovarian): > 125 µM
GI50 (OVCAR-3 ovarian): 4.7 µM and 2.48 µM
TGI (OVCAR-3 ovarian): 58.9 µM and 20.8 µM
GI50 (OVCAR-4 ovarian): 4 µM and 4.72 µM
TGI (OVCAR-4 ovarian): > 125 µM
GI50 (OVCAR-5 ovarian): 4.81 µM and 1.59 µM
TGI (OVCAR-5 ovarian): 52.3 µM and > 125 µM
GI50 (OVCAR-8 ovarian): 3.58 µM and 3.72 µM
TGI (OVCAR-8 ovarian): 111 µM
GI50 (P388 leukemia): 0.0658 µM
TGI (P388 leukemia): 30.2 µM
GI50 (P388/ADR leukemia): 2.61 µM
TGI (P388/ADR leukemia): > 125 µM
TGI (RPMI-8226 leukemia): 60.5 µM and > 125 µM
GI50 (RXF 393 renal): 5.17 µM and 10.6 µM
TGI (RXF 393 renal): 19.7 µM and 30.4 µM
GI50 (SF-268 CNS): 4.59 µM and 4.66 µM
TGI (SF-268 CNS): 57.1 µM and 37.4 µM
GI50 (SF-295 CNS): 5.72 µM and 9.92 µM
TGI (SF-295 CNS): 40.1 µM and 34.5 µM
GI50 (SF-539 CNS): 6.23 µM and 9.9 µM
TGI (SF-539 CNS): 32.2 µM and 31.7 µM
GI50 (SK-MEL-2 melanoma): 2.09 µM and 1.38 µM
TGI (SK-MEL-2 melanoma): 8.69 µM and 7.22 µM
GI50 (SK-MEL-28 melanoma): 17.8 µM and 66.7 µM
TGI (SK-MEL-28 melanoma): 63.2 µM and > 125 µM
GI50 (SK-MEL-5 melanoma): 5.42 µM and 3.78 µM
TGI (SK-MEL-5 melanoma): 61.4 µM and 41.6 µM
GI50 (SK-OV-3 ovarian): 3.12 µM and 4.62 µM
TGI (SK-OV-3 ovarian): 66.9 µM and 30.3 µM
GI50 (SN12C renal): 6.9 µM and 9.51 µM
TGI (SN12C renal): 77.9 µM
GI50 (SN12K1 renal): 3.79 µM
TGI (SN12K1 renal): 19.7 µM
GI50 (SNB-19 CNS): 11.3 µM and 17.7 µM
TGI (SNB-19 CNS): 73.9 µM and 90.3 µM
GI50 (SNB-75 CNS): 4 µM and 3.83 µM
TGI (SNB-75 CNS): 33.6 µM and 14.1 µM
GI50 (SNB-78 CNS): 26.4 µM
TGI (SNB-78 CNS): 92.7 µM
GI50 (SW-620 colon): 4.87 µM and 6.51 µM
TGI (SW-620 colon): 49.8 µM
GI50 (U251 CNS): 6.89 µM and 8.54 µM
TGI (U251 CNS): 53.9 µM and 25.3 µM
TGI (UACC-257 melanoma): > 125 µM
GI50 (UACC-62 melanoma): 1.23 µM and 0.412 µM
TGI (UACC-62 melanoma): 30.8 µM and 8.61 µM
GI50 (UO-31 renal): 4.3 µM and 4.99 µM
TGI (UO-31 renal): 51.7 µM
GI50 (XF 498 CNS): 3.04 µM
TGI (XF 498 CNS): 17.6 µM
